Values quoted from earlier work in US10357533B2, “Drug for the effective control of acute and or chronic pain and a method for its administration” (PVP LABS PTE. LTD., priority 2016, dated 2019).

Test system: mice
Settings: dosage 10 mg/kg, published data; cited from earlier work

## CN1CC[C@]23c4c5ccc(O)c4O[C@H]2[C@@H](O)C=C[C@H]3[C@H]1C5 [Morphine, reference compound]
  duration of the analgesic effect: 2 to 3 h
